# Reference: paper PMC12785511, “Integrative Profiling for BBB Permeability Using Capillary Electrochromatography, Experimental Physicochemical Parameters, and Ensemble Machine Learning” (International Journal of Molecular Sciences, 2025)
# Assay: physchem
smiles,measurement,setting,value
CNC(=O)Oc1ccc2c(c1)[C@]1(C)CCN(C)[C@@H]1N2C [physostigmine],logP,,1.69 ± 0.03
same,logD,pH 7.4,0.81
